Measurements taken from patent US5760092A, “Allocolchinones and uses thereof” (Brandeis University, priority 1996, dated 1998).

What was measured:
[1] = test system: NCI-H322M non-small cell lung cancer cells
[2] = test system: COLO 205 colon cancer cells; conditions: from LC50

CCCC(=O)NC1CCc2cc(OC)c(OC)c(OC)c2-c2ccc(C(C)=O)cc21 (stereo not drawn)
GI50 [1]: < 0.01 µM
TGI [1]: > 100 µM
Percent Growth ([1]; log10 conc -6.0, 1 µM): 50%
CC50 ([1]; read-out: LC50, human, nci-h322m lung cancer cells): > 100 µM
selectivity against COLO 205 [2]: selective

COc1cc2c(c(OC)c1OC)-c1ccc(C(C)=O)cc1C(NC(C)=O)CC2 (stereo not drawn)
selectivity against COLO 205 [2]: selective
